Reference: patent publication US20240025922A1, “TETRAHYDROPYRIDO[3,4-d]PYRIMIDINES AS HPK1 INHIBITORS” (Merck Patent GmbH, priority 2022, published 2024)

The chains behind the UniProt entries cited, without tags or fusion partners.
UniProt Q92918, whole entry, looked up: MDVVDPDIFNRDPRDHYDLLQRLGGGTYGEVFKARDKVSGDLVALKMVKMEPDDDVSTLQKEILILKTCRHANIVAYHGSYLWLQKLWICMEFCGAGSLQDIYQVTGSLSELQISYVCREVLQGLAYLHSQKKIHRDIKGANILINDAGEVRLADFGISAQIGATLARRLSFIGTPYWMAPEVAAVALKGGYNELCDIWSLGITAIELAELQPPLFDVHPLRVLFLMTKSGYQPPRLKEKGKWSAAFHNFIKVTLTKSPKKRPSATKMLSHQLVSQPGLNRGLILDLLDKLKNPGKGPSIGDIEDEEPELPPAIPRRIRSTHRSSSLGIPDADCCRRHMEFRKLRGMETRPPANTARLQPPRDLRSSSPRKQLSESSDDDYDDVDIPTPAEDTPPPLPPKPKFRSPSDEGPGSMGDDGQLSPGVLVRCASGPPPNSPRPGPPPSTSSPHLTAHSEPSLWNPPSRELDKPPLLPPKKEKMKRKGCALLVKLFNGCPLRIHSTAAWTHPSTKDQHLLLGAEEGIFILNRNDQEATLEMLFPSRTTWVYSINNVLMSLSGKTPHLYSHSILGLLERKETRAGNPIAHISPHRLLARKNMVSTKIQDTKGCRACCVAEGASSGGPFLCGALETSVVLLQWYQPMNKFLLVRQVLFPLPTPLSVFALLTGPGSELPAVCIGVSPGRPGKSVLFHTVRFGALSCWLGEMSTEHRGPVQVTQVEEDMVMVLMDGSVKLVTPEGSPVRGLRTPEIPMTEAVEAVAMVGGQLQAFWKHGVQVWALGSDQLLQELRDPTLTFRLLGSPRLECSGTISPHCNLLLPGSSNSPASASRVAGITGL

Assays:
[1] = molecular target: HPK1 (SLP76 phosphorylation at Ser376 in Jurkat and EL-4 cells) (Homo sapiens, UniProt Q92918); format: cell-based; details: read-out: HPK1 pSLP76 IC50; αCD3/αCD28 Dynabeads stimulated cells, pSLP76 (Ser376) detection
Protocol: Cellular Assay—Phospho-SLP-76 (Ser376).
Inhibition of HPK1 enzymatic activity in cells was determined by detection of SLP76 phosphorylation at Ser376 residue in lysate from Jurkat (human) and EL-4 (mouse) cells. Jurkat and EL-4 cells express both HPK1 and SLP76 naturally. All cells were cultured in RPMI 1640 media containing 10% heat inactivated fetal bovine serum (FBS) and 1×Penicillin-Streptomycin. In either Jurkat or El-4 assay, cells were pre-incubated with test compounds prior to T cell stimulation by respective αCD3/αCD28 Dynabeads™. For detection, plates were read on the Envision and percent inhibition and IC50 were determined by Smart fit in Genedata Analyzer.
For Jurkat cells: 35 μL cell suspension were dispensed at a density of 30,000 cells/well in 384-well plates containing HBSS (Gibco, 14025076)+0.1% BSA). […]
For EL-4.IL2 assay, 50 μL cell suspension at 2×10^6 cells/mL in HBSS were first dispensed into 384-well plates and then 50 nL serial dilutions of test compounds were spotted to each well by an Echo liquid handler. […] For detection, 4 μL prepared HTRF antibody mixture (Cisbio, 63ADK000U) in detection buffer were mixed with 16 μl of cell lysate and plates were incubated at room temperature for 19 hours prior to EnVision reading.

[2] = molecular target: full-length human HPK1 (MAP4K1) (Homo sapiens (Human), UniProt Q92918); experiment: HPK1 Kinase Assay (Biochemical Assay), ADP-Glo; details: GST-HPK1 3.2 nM, 10 μM ATP, MBP substrate, read-out: HPK1 enzymatic IC50
From the text: HPK1 Kinase Assay (Biochemical Assay).
A recombinant fusion protein consisting of full-length human HPK1 (MAP4K1) with an N-terminal Glutatione S-transferase (GST) tag was produced in insect cells Sf21 using the baculovirus expression system. GST-HPK1 protein was purified from cell lysates by glutathione Sepharose affinity chromatography. The assay is run in three continuous steps: 1) the HPK1 enzymatic kinase reaction, 2) an ATP depletion, and 3) the ADP detection, the steps 2 and 3 are performed with ADP-Glo™ Kinase Assay kit from Promega (V9101). Test compounds were prepared by 10-point serial dilution in dimethyl sulfoxide (DMSO) and 100 nL of each dilution was spotted onto a 384-well Optiplate (Perkin Elmer and Cat #6007299) by Labcyte Echo. 5 μL kinase reaction buffer (0.02% Brij-35, 2 mM DTT, 50 mM HEPES pH 7.5, MgCl2 10 mM, BSA 0.01% and O-glycerophosphate 12.5 mM) containing HPK1 (3.2 nM) enzyme was transferred to each well and incubated for 15 minutes at room temperature at 60% humidity. The enzymatic reaction was started by adding 5 μl of Start-Mix (10 μM ATP and 3.235 μM MBP). […] The plate was transferred to a Perkin Elmer EnVision (2104 Multilabel Reader) for luminescence detection and percent inhibition activity and IC50 value were determined using Genedata Screener.

`Cc1c(N2CCc3cnc(Nc4cccc(CN(C)C)c4)nc3C2)cnc2c1NCCO2` [Example 65, N-{3-[(dimethylamino)methyl]phenyl}-7-{8-methyl-1H,2H,3H-pyrido[2,3-b][1,4]oxazin-7-yl}-5H,6H,7H,8H-pyrido[3,4-d]pyrimidin-2-amine] gave an IC50 [1] of 500 to 1000 nM and an IC50 [2] of under 100 nM.
